The source of these data is ChEMBL document CHEMBL2062486, “HIV-1 Integrase Inhibitor-Inspired Antibacterials Targeting Isoprenoid Biosynthesis” (ACS Med Chem Lett, 2012).

This experiment can be described thus: Inhibition of Staphylococcus aureus UPPS-mediated undecaprenyl pyrophosphate synthesis by continuous spectrophotometric assay.

Molecules are shown by their SMILES.

A word on the IC50: it is the concentration needed to halve the response being measured. Compound `CCCCCCOc1cccc(Cn2ccc(O)c(C(=O)O)c2=O)c1` came in with a half-maximal inhibitory concentration (IC50) of 8.2 µM.
